Experimental data: article PMC9719290

Protein sequences, listed by entry. Tags and fused reporters are not part of them. Residues count along the entry.
UniProt O14763, 56-182, stated change not applied: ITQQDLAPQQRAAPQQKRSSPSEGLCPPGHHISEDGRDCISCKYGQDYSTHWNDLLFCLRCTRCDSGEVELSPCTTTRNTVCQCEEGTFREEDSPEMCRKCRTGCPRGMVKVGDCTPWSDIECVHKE

Target: monkey TRAIL (monkey)
Test: SPR

## soluble DR5-Fc (sDR5-Fc) chimeric protein (from UniProt O14763 56-182) (Fc fusion)
  fold affinity against rat TRAIL: > 10 fold
